Experiments:
[1] = target: Kappa-type opioid receptor (Cavia porcellus, UniProt P41144); experiment: Inhibition of KOR in guinea pig brain membrane by liquid scintillation counter analysis
[2] = target: Carbonic anhydrase 5A, mitochondrial (Homo sapiens, UniProt P35218); experiment: Inhibition of recombinant human CA-VA incubated for 15 mins by stop-flow method
Carbonic anhydrase 9 = Carbonic anhydrase 9 (Homo sapiens, UniProt Q16790); experiment: Inhibition of recombinant human CA-IX incubated for 15 mins by stop-flow method
Carbonic anhydrase 12 = Carbonic anhydrase 12 (Homo sapiens, UniProt O43570); experiment: Inhibition of recombinant human CA-XII incubated for 15 mins by stop-flow method
Carbonic anhydrase 7 = Carbonic anhydrase 7 (Homo sapiens, UniProt P43166); experiment: Inhibition of recombinant human CA-VII incubated for 15 mins by stop-flow method
Carbonic anhydrase 2 = Carbonic anhydrase 2 (Homo sapiens, UniProt P00918); experiment: Inhibition of recombinant human CA-II incubated for 15 mins by stop-flow method
Carbonic anhydrase 13 = Carbonic anhydrase 13 (Homo sapiens, UniProt Q8N1Q1); experiment: Inhibition of recombinant human CA-XIII incubated for 15 mins by stop-flow method
Carbonic anhydrase 4 = Carbonic anhydrase 4 (Homo sapiens, UniProt P22748); experiment: Inhibition of recombinant human CA-IV incubated for 15 mins by stop-flow method
Carbonic anhydrase 14 = Carbonic anhydrase 14 (Homo sapiens, UniProt Q9ULX7); experiment: Inhibition of recombinant human CA-XIV incubated for 15 mins by stop-flow method
Carbonic anhydrase 1 = Carbonic anhydrase 1 (Homo sapiens, UniProt P00915); experiment: Inhibition of recombinant human CA-I incubated for 15 mins by stop-flow method

Protein sequences, listed by entry. Tags and fused reporters are not part of them. Lines headed by an entry give the natural chain unless they say otherwise; changes in a name come on top. Residues count along the entry.
UniProt P41144: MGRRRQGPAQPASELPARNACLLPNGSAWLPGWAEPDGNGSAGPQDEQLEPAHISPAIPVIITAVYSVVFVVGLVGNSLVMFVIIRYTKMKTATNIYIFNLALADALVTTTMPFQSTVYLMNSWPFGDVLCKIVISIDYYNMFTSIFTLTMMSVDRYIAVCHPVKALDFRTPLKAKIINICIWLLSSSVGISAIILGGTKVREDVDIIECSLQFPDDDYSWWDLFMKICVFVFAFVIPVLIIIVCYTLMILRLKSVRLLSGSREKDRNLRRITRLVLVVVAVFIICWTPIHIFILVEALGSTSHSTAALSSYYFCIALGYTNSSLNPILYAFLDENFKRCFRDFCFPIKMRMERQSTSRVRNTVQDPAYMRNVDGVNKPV
UniProt P35218, 39-305 limits assumed: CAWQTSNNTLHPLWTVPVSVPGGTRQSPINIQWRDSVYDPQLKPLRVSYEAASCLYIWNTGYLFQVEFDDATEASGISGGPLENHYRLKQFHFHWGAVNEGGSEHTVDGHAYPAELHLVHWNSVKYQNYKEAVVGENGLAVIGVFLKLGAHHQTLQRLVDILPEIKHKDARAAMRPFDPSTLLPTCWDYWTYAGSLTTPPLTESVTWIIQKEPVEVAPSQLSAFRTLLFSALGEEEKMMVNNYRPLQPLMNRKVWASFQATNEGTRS
UniProt O43570, 25-354 limits assumed: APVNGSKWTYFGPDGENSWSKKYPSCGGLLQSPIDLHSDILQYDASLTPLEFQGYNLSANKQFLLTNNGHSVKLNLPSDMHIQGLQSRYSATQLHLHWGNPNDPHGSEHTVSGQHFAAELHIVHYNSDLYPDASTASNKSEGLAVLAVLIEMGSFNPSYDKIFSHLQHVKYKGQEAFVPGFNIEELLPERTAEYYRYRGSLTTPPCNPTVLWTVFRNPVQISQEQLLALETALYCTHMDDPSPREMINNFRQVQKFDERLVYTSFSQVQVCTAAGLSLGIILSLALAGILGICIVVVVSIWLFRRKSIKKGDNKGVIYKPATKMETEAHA
UniProt P43166: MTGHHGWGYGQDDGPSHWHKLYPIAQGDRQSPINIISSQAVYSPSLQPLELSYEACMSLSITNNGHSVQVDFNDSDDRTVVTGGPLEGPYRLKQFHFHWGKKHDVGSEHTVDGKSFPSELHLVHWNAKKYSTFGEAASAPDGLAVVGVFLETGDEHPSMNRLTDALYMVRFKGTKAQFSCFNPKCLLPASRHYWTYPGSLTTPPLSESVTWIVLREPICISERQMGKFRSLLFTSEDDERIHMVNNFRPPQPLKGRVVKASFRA
UniProt Q8N1Q1: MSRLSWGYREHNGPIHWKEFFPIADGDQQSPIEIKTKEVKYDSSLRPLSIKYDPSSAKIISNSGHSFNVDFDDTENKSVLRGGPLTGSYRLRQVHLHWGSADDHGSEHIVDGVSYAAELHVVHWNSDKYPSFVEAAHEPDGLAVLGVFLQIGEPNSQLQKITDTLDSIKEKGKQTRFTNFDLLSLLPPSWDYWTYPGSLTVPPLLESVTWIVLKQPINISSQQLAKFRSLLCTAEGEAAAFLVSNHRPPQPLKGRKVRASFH
UniProt P22748, 19-284 limits assumed: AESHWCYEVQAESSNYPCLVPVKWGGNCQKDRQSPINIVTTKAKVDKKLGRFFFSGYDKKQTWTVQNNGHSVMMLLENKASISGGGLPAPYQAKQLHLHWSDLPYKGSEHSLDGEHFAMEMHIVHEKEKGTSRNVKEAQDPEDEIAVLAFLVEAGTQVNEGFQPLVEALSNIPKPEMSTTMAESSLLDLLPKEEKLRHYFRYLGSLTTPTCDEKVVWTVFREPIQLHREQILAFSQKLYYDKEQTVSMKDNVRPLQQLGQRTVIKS
UniProt Q9ULX7, 16-337 limits assumed: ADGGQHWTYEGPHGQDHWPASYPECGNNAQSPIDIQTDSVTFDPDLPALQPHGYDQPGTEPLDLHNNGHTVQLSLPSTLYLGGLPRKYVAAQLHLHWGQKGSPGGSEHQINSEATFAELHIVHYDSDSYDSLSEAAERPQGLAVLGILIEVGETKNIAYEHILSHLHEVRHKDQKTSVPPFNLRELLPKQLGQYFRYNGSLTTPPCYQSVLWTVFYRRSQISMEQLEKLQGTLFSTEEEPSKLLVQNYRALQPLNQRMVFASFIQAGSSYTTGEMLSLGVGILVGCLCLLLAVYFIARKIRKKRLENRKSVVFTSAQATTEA
UniProt P00915, 2-261 limits assumed: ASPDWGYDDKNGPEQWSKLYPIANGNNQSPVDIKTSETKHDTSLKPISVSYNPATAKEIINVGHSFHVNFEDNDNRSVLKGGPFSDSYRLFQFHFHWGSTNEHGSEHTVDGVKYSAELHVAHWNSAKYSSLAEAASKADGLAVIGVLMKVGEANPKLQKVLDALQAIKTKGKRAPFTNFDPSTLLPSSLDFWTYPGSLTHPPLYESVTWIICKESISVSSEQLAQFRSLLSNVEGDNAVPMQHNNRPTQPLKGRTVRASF

| Structure (SMILES) | Ki [1] [µM] | Ki [2] [µM] | Ki (Carbonic anhydrase 9) [µM] | Ki (Carbonic anhydrase 12) [µM] | Ki (Carbonic anhydrase 7) [µM] | Ki (Carbonic anhydrase 2) [µM] | Ki (Carbonic anhydrase 13) [µM] | Ki (Carbonic anhydrase 4) [µM] | Ki (Carbonic anhydrase 14) [µM] | Ki (Carbonic anhydrase 1) [µM] |
| --- | --- | --- | --- | --- | --- | --- | --- | --- | --- | --- |
| CN(C(=O)Cc1ccccc1)[C@H]1CC[C@@]2(CCCO2)C[C@@H]1N1CCCC1 | 0.00073 | – | – | – | – | – | – | – | – | – |
| NC(=O)C1(Nc2ccccc2)CCN(CCc2ccc(S(N)(=O)=O)cc2)CC1 | – | 0.0891 | 0.028 | 0.0249 | 0.0301 | 0.0091 | 3.74 | 9.63 | – | – |
| NS(=O)(=O)c1ccc(NC(=O)NCC2(Nc3ccccc3)CCN(CCc3ccccc3)CC2)cc1 | – | – | 0.0372 | – | – | – | – | 9.31 | – | – |
| N#CC1(Nc2ccc3ccccc3c2)CCN(CCc2ccc(S(N)(=O)=O)cc2)CC1 | – | 0.26 | 0.0441 | 0.165 | – | 0.0504 | 2.24 | 9.58 | 0.0822 | 0.378 |
| Cc1ccc(NC2CCN(CCc3ccc(S(N)(=O)=O)cc3)CC2)cc1 | – | – | 0.0453 | 0.0258 | 0.0262 | 0.0283 | 0.711 | 9.65 | 0.0594 | 0.0884 |
| NS(=O)(=O)c1ccc(CCN2CCC(Nc3ccc4ccccc4c3)CC2)cc1 | – | 0.0888 | – | 0.026 | 0.0435 | 0.0098 | 8.82 | – | – | 0.0985 |
| NS(=O)(=O)c1ccc(C(=O)NCC2(Nc3ccccc3)CCN(CCc3ccccc3)CC2)cc1 | – | – | – | – | – | – | – | – | 0.0817 | – |
